Reference: PubChem BioAssay AID540308 (The Scripps Research Institute Molecular Screening Center, 2011)
The entries are a selection whose mix differs from that of the whole data set. Calls of active or inactive are those of the source.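 How the source made its calls: active means activation above a per-plate cutoff, the mean activation of sample wells on that plate plus 3 SD (cut at about 8% in these data); inactive means the rest.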

By UniProt entry, the sequences of proteins in these tests, tags left out.
UniProt P32245, whole entry: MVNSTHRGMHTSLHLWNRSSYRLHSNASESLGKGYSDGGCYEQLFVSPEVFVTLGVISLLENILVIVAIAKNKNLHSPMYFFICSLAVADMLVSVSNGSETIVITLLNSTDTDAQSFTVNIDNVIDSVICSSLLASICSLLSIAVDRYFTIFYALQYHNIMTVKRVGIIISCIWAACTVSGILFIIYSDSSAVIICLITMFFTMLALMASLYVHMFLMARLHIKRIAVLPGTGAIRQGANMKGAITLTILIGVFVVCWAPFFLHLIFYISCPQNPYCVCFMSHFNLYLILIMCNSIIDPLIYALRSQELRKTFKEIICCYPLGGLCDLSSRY

What follows are molecules tested against Melanocortin receptor 4 (Homo sapiens) (UniProt P32245) (assay: activators of MC4R beta-arrestin recruitment – cell-based, luminescence, agonist arm of biased-ligand search, primary screen (AID 540308)). Conditions: U2OS MC4R beta-arrestin complementation, at 8.9 µM, active compounds read high, percent of melanotan II response, DMSO zero.

SMILES | activation
COc1ccc(C(=O)NCC2(N3CCOCC3)CCCCC2)cc1OC | inactive: 0.12%
COc1cc(C(=O)NCC2(N3CCOCC3)CCCCC2)cc(OC)c1C | inactive: -0.07%
O=C(NCC1(N2CCOCC2)CCCCC1)c1cc(Br)ccc1Cl | inactive: -0.22%
O=C(OC1CN2CCC1CC2)C1c2ccccc2C=Cc2ccccc21 (stereo not given) | inactive: -0.97%
CCOC(=O)N1CCC(Nc2ccc(C)cc2)CC1 | inactive: 0.6%
N/C(=N\O)c1c(N)no[n+]1[O-] | inactive: -0.54%
N#Cc1ccc(C(=O)NCC2(N3CCCCC3)CCCCC2)cc1 | inactive: -0.29%
CC(C)(C)OC(=O)N1CCC(N(C(=O)c2ccccc2)c2ccc(Cl)cc2)CC1 | inactive: 2.19%
CN(C)C1(CNC(=O)c2cccc(C#N)c2)CCCCC1 | inactive: 1.76%
c1ccc(CN2CCC(Nc3ccccc3)CC2)cc1 | inactive: 0.59%
CCCN1CCC(Nc2cc(OC)cc(OC)c2)CC1 | inactive: -2.02%
Cc1cc(N(CCCl)CCCl)ccc1C=O | inactive: -1.33%
Cc1ccc(C(=O)NCC2(N3CCCCC3)CCCCC2)o1 | inactive: -3.12%
Fc1ccccc1NC1CCN(Cc2ccccc2)CC1 | inactive: 0.18%
Cc1ccc(NC2(C#N)CCN(Cc3ccccc3)CC2)cc1 | inactive: -2.26%
CC(=O)N(c1ccccc1)C1CCNCC1 | inactive: -0.76%
COc1cc(OC)cc(C(=O)NCC2(N3CCCCC3)CCCCC2)c1 | inactive: -0.01%
O=C(NCC1(N2CCCCC2)CCCCC1)c1ccco1 | inactive: -1.72%
CN(C)c1ccc(C(=O)NCC2(N3CCCCC3)CCCCC2)cc1 | inactive: -0.9%
Cn1c(=O)[nH]cc(N(CCCl)CCCl)c1=O | inactive: -1.02%
Cc1ccccc1NC1(C#N)CCN(Cc2ccccc2)CC1 | inactive: 0.73%
CCN1CCC(Nc2cccc(F)c2)CC1 | inactive: -0.37%
CC(C)(C)OC(=O)N1CCC(Nc2ccccc2)CC1 | inactive: 1.8%
O=C(O)C1(Nc2ccccc2)CCN(Cc2ccccc2)CC1 | inactive: -0.28%
CCCOc1ccc(C(=O)NCC2(N(C)C)CCCCC2)cc1 | inactive: -1.8%

SMILES | activation
CCOc1ncccc1C(=O)NCC1(N2CCOCC2)CCCCC1 | inactive: -1.44%
CN1CCC(Nc2ccc(F)c(Cl)c2)CC1 | inactive: 2.08%
CN1CCC(Nc2ccc(Cl)cc2)CC1 | inactive: 0.08%
COc1cc(OC)cc(C(=O)NCC2(N3CCOCC3)CCCCC2)c1 | inactive: -1.26%
COc1cccc(C(=O)N(c2cc(C)cc(C)c2)C2CCN(C(=O)OC(C)(C)C)CC2)c1 | inactive: 2.89%
CCC(CO)(C(=O)OC1CN2CCC1CC2)c1ccccc1 (stereo not given) | inactive: 3.62%
CSc1ccccc1C(=O)NCC1(N2CCCCC2)CCCCC1 | inactive: -1.43%
Cc1cccc(NC2(C#N)CCN(Cc3ccccc3)CC2)c1 | inactive: -1.68%
COc1ccc(C(=O)NCC2(N3CCCCC3)CCCCC2)cc1 | inactive: -0.77%
COc1ccc(C(=O)NCC2(N3CCCCC3)CCCCC2)c(OC)c1OC | inactive: -2.65%
CC(C)(C)OC(=O)N1CCC(N(C(=O)c2ccccc2)c2ccc(F)cc2)CC1 | inactive: -1.63%
O=C(NCC1(N2CCCCC2)CCCCC1)c1ccc(=O)[nH]c1 | inactive: -1.98%
O=C(NCC1(N2CCCCC2)CCCCC1)c1cccs1 | inactive: -0.5%
N#CC1(Nc2ccccc2)CCN(Cc2ccccc2)CC1 | inactive: 1.06%
O=C(NCC1(N2CCCCC2)CCCCC1)c1ccc(Cl)s1 | inactive: -1.53%
O=C(OC1CN2CCC1CC2)C1c2ccccc2Oc2ccccc21 (stereo not given) | inactive: -2.07%
COc1ccc(Cl)cc1C(=O)NCC1(N2CCOCC2)CCCCC1 | inactive: -1.7%
CCOC(=O)N1CCC(Nc2ccc(OC)cc2)CC1 | inactive: -3%
O=C(NCC1(N2CCCCC2)CCCCC1)c1ccc(Cl)nc1 | inactive: 0.96%
Cc1cc(C)cc(N(C(=O)c2ccccc2)C2CCN(C(=O)OC(C)(C)C)CC2)c1 | inactive: 2.24%
O=C(NCC1(N2CCOCC2)CCCCC1)c1cc2ccccc2o1 | inactive: 0.78%
O=P1(N(CCCl)CCCl)SCCCS1 | inactive: 0.84%
CCCCOc1ccc(C(=O)NCC2(N3CCOCC3)CCCCC2)cc1 | inactive: -1%
O=C(NCC1(N2CCCCC2)CCCCC1)c1ccc(F)cc1 | inactive: 0.48%
COc1ccc(NC2CCN(CCc3ccccc3)CC2)c(OC)c1 | inactive: -0.19%

SMILES | activation
CCOC(=O)N1CCC(Nc2ccc(F)cc2)CC1 | inactive: -1.37%
O=C1CCN(Cc2ccccc2)CC1 | inactive: -0.74%
CCOc1ccc(C)cc1CN(CCCl)CCCl | inactive: 1.47%
CCOC(=O)N1CCC(Nc2cccc(C)c2)CC1 | inactive: -1.95%
COc1cc(C(=O)NCC2(N(C)C)CCCCC2)ccc1OC(F)F | inactive: -1.5%
CCN1CCC(Nc2ccc(Cl)cc2)CC1 | inactive: -0.58%
N#CC1(Nc2ccccc2)CCN(CCc2ccccc2)CC1 | inactive: -0.97%
CSc1ccc(C(=O)NCC2(N3CCOCC3)CCCCC2)cc1 | inactive: 0.42%
O=C(NCC1(N2CCCCC2)CCCCC1)c1cccc([N+](=O)[O-])c1 | inactive: -0.71%
O=C(NCC1(N2CCCCC2)CCCCC1)c1ccc(OC(F)F)cc1 | inactive: -0.56%
COc1cc(C(=O)NCC2(N3CCCCC3)CCCCC2)ccc1OC(F)F | inactive: 2.26%
O=C(NCC1(N2CCOCC2)CCCCC1)c1cc(=O)[nH]c2ccccc12 | inactive: -0.21%
CN1CCN(CCOC(=O)C(O)(c2ccccc2)c2ccccc2)CC1 | inactive: -1.06%
COc1ccc(NC2CCN(C(=O)OC(C)(C)C)CC2)cc1 | inactive: -3.18%
CC(C)c1ccc(C(=O)NCC2(N3CCOCC3)CCCCC2)cc1 | inactive: 0.48%
O=C(NCC1(N2CCCCC2)CCCCC1)c1cccc(C(F)(F)F)c1 | inactive: -0.41%
COc1cc(OC)c(C(=O)NCC2(N(C)C)CCCCC2)cc1OC | inactive: -0.6%
O=C(NCC1(N2CCOCC2)CCCCC1)c1cc(F)c(F)cc1Cl | inactive: 0.73%
CC(C)c1ccc(NC2CCN(C(=O)OC(C)(C)C)CC2)cc1 | inactive: 3.35%
COc1ccc(CN(CCCl)CCCl)cc1Cl | inactive: -2.94%
CN(C)c1cccc(C(=O)NCC2(N3CCCCC3)CCCCC2)c1 | inactive: 0.47%
Cc1ccc(C(=O)NCC2(N(C)C)CCCCC2)o1 | inactive: -0.04%
CCCOc1ccc(C(=O)NCC2(N(C)C)CCCCC2)cc1OC | inactive: -1.95%
CN1CCC(Nc2cccc(F)c2)CC1 | inactive: -1.65%
O=C(NCC1(N2CCCCC2)CCCCC1)c1cncc(Br)c1 | inactive: 0.16%
